Assay results reported in US20260085130A1.

Columns and labels:
[1] = target: human Factor XIIa (FXIIa) (human) (UniProt P00748); test: cell-based or functional assay
[2] = target: human Factor XIIa (FXIIa) (human) (UniProt P00748); test: purified component inhibition assay (Ki^app, Morrison fit)
[3] = target: human Factor XIIa (FXIIa) (human) (UniProt P00748); test: inhibition of human FXIIa activity (FIG. 21)

Substance	Plasma Ki^app [1]	Ki [2]	inhibitory activity [3]
M0177-A06 (antibody)	458 nM	0.017 nM	
M0177-C12 (antibody)	217 nM	0.018 nM	
M0182-H01 (antibody)	359 nM		
M0191-H09 (antibody)	463 nM	0.016 nM	
M0191-H10 (antibody)	216 nM	0.013 nM	
M0192-A01 (antibody)	198 nM	0.017 nM	
M0192-A03 (antibody)	514 nM	0.013 nM	
M0192-G03 (antibody)	125 nM	0.018 nM	
M0192-G05 (antibody)	852 nM	0.015 nM	
M0292-D07 (antibody)	115 nM	0.014 nM	
M0308-F04 (antibody)	1570 nM	0.017 nM	
M0308-H03 (antibody)	275 nM	0.018 nM	
M0310-A04 (antibody)	316 nM	0.015 nM	
M0310-C06 (antibody)	135 nM	0.057 nM	
M0310-F02 (antibody)	319 nM	0.106 nM	
M0310-G07 (antibody)	295 nM	0.022 nM	
M0310-G08 (antibody)	796 nM	0.024 nM	

More lines, now with the values ahead:

Plasma Ki^app [1]	Ki [2]	inhibitory activity [3]	Substance
381 nM	0.007 nM		M0178-A08 (antibody)
96 nM	0.011 nM		M0182-D04 (antibody)
1000 nM	0.011 nM		M0183-B12 (antibody)
33 nM	0.006 nM		M0183-C03 (antibody)
118 nM	0.011 nM		M0183-D08 (antibody)
76 nM	0.005 nM		M0183-H08 (antibody)
269 nM	0.008 nM		M0184-B04 (antibody)
435 nM	0.004 nM		M0184-D01 (antibody)
38 nM	0.004 nM		M0184-F12 (antibody)
176 nM	0.013 nM		M0191-A03 (antibody)
460 nM	0.007 nM		M0191-E04 (antibody)
31 nM	0.005 nM		M0191-E09 (antibody)
279 nM	0.005 nM		M0192-D02 (antibody)
174 nM	0.008 nM		M0192-F01 (antibody)
304 nM	0.009 nM		M0192-F06 (antibody)
125 nM	0.007 nM		M0192-F07 (antibody)
485 nM	0.009 nM		M0192-H04 (antibody)
101 nM	0.006 nM	4.7 pM	M0192-H11 (antibody)
331 nM	0.012 nM		M0310-B09 (antibody)
353 nM	0.007 nM		M0310-G06 (antibody)
